Rows were chosen to be rich in hits. Some 3.7% of all compounds tested hit in one or more screens of this group.
miR-21 reporter: miR-21 reporter, rising signal | AID 2288 | HeLa miR-21 FLuc reporter, luciferase, 48 h | 340,000 tested, under 10 active | Potency, µM (titrated, usually from 38.3 µM), for the others: at the top dose reporter change, positive = more light; active = well fitted rising curve with a large enough effect; inconclusive = small, poorly fitted or top-dose-only effect; inactive = no such curve, though single readings can be large or run the other way;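 also: % of control where 0% means no effect; miR-21 action dims this reporter so a rising signal means less miR-21 action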
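HeLa miR-21-FLuc reporter line, endogenous miR-21; 2000 cells/well in DMEM/10% FBS; compound titration up to ~40uM final, 48 h, 37 degree Celsius; luciferase detection reagent, 15 min lysis, CCD luminescence.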
ClpP mod: qHTS Assay for Activators of ClpP. ATP-dependent Clp protease proteolytic subunit (Bacillus subtilis (strain 168)), P80244. purified B. subtilis ClpP, FRET peptide cleavage, 20 min. Potency, µM (titrated, usually from 57.5 µM), without a hit: at the highest dose activity change, negative = active. 340,000 compounds, 1.9% hits; active means well fitted falling curve with a large enough effect; inconclusive means small, poorly fitted or top-dose-only effect; inactive means no such curve, though single readings can be large or run the other way; further: potency means the concentration at half of the fitted maximal effect; the source files actives as falling curves though it sought activators and does not explain the sign; nearly all actives have a fitted effect of over 65% in size
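FRET quenching reversal measured ClpP activation: 10 microg/mL B. subtilis ClpP at pH 8 with the FRET-FV decapeptide, read at 430 nm after 320 nm excitation. The 20-min minus 0-min signal was scaled between DMSO/no-enzyme wells and ADEP (5.8 microM final).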
Nrf2 activator: Nrf2 pathway activation | 410,000 compounds, 0.31% hits | AID 624171 | AREc32 ARE-luciferase reporter (MCF7-derived line), luminescence, 24 h | Potency, µM (highest dose often 46.1 µM), inactives show at the top dose activation, usual class: activators; further: potency means the concentration at half of the fitted maximal effect; % of control where 0% means no effect; nearly all actives have a fitted effect of over 65% in size
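AREc32 cells carrying an ARE-driven firefly luciferase, 1000 cells/well in OPTI-MEM with 5% FBS, dosed after overnight attachment and incubated 24 hr at 37 deg C. Steady-Glo luminescence read after 30 min at RT.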
A549 viability: kills or reduces viability of A549 cells in Nrf2 counter-screen; A549 ARE-Fluc cells, CellTiter-Fluor viability, 18-24 h; Potency, µM (top dose mostly 46 µM), without a hit: top-dose activity change, negative = cytotoxicity, actives largely listed as inhibitors; 390,000 compounds, 0.16% hits; further: potency means the concentration at half of the fitted maximal effect; on the % scale 0 is the no-effect control and ±100 the full control effect
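Cytotoxicity counterscreen: CellTiter-Fluor fluorescence was measured in A549 ARE_Fluc cells after 18-24 h of compound exposure in a concentration series. The subsequent BugLite luminescent read reports ARE-luciferase activity.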
Nrf2 inh: inhibitors of Nrf2 signaling; A549 ARE-Fluc reporter, luciferase luminescence, 18-24 h; Potency, µM (doses to about 46 µM), for the others: at the highest dose activity change, negative = inhibition, most hits filed as inhibitors; 360,000 compounds, 2.1% hits; AID 504444; further: potency means the concentration at half of the fitted maximal effect; on the % scale 0 is the no-effect control and ±100 the full control effect; nearly all actives have a fitted effect of over 60% in size
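Cells were seeded and rested 2 h, then exposed to compounds for 18-24 h. CellTiter-Fluor was read first as a viability measure. BugLite was added 15 min before the final luminescent read of ARE-luciferase activity in A549 cells.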
IL2 activator: activates IL-2 in a cell-based reporter assay | activation, % (series mostly up to about 46 µM) | 360,000 compounds, 0.065% hits | IL-2 activation reporter assay, cell-based qHTS; stimulated with anti-CD3/CD4/CD28 beads; in transgenic mouse T cells; in the data active means activation above about 50%; inconclusive means mostly about 30% to 49%; further: 0% is about no effect
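Using fluorescent plate cytometry, EGFP and DsRed are detected in transgenic mouse T cells stimulated 18 h at 37 degrees C with antibody-coated beads after 60 min compound pretreatment.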
* hit, by the source's call; ? = inconclusive; . = no result; [ ] = another dose, or the depositor's remark. Unless noted, the call rests on the fitted dose curve; in most records, active means well fitted curve in the direction sought with a large enough effect; inconclusive means small, poorly fitted or top-dose-only effect, or another doubt; inactive means no such curve, though single readings can be large; an effect the other way counts as inactive or inconclusive.

Chains of the proteins cited; added tags and fusions are not shown.
ATP-dependent Clp protease proteolytic subunit (Bacillus subtilis (strain 168)), P80244, UniProt P80244, whole entry, looked up: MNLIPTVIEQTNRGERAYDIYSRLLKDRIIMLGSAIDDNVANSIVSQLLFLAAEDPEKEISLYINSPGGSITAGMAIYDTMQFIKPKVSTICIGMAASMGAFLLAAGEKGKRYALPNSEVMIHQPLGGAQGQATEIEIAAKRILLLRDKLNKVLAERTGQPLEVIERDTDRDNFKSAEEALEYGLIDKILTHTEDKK

#	mol	miR-21 reporter	ClpP mod	Nrf2 activator	A549 viability	Nrf2 inh	IL2 activator
1	O=[N+]([O-])c1cc2ccccc2c(O)c1O	.	18%	12%	.	.	0
2	O=[N+]([O-])c1cc(-c2ccccc2)cc([N+](=O)[O-])c1O	.	.	4%	?	16µM*	0
3	O=c1/c(=C\c2ccc(O)cc2)sc2nc(-c3ccccc3)c(-c3ccccc3)n12	-1%	-24%	4%	1%	-8%	99*
4	CC1C(=O)Nc2ccc(S(=O)(=O)N3CCN(c4cccc(C(F)(F)F)c4)CC3)cc2NC1=O (stereo not drawn)	25%	-2%	0%	?	8.2µM*	-4
5	CCOc1ccc(CCNC(=O)CSc2nc3ccccc3nc2Cc2ccc(C)cc2)cc1OCC	19%	-7%	-1%	2%	-3%[9.27 µM]	.
6	COc1ccc2oc(=O)c(C(=O)NCc3cccnc3)cc2c1	-4%	28µM*	3%	5%	28%	1
7	COc1ccc2oc(=O)c(C(=O)NCC3CCCO3)cc2c1 (stereo not drawn)	-31%	28µM*	0%	1%	20%	1
8	COc1ccc(-c2cc(C(F)F)n3ncc(C(=O)NCC4CCCO4)c3n2)cc1 (stereo not drawn)	0%	22µM*	0%	10%	1%	0
9	O=C(NCC1CCCO1)c1cnn2c(C(F)F)cc(C3CC3)nc12 (stereo not drawn)	-19%	-9%	2%	-26%	?	-2
10	CNC(=O)c1cc2cc(OC)ccc2oc1=O	-3%	28µM*	-1%	0%	1%	-1
11	CCCCC(CC)CNC(=O)Cc1ccc(-n2c(=O)[nH]c3ccccc3c2=O)cc1 (stereo not drawn)	11%	?	0%	?	.	.
12	O=C(Cn1ncc2c(=O)oc3ccccc3c21)Nc1cc(F)ccc1F	4%	-3%	-1%	4%	-6%	.
13	CC(C)(C)c1csc(NNC(=O)c2ccc(Cl)cc2)n1	-2%	.	2%	9%	?	-1
14	O=C(NNC(=O)c1ccc(F)cc1)c1ccncc1	-4%	-1%	0%	0%	-4%	0
15	O=C(NNC1=Nc2ccccc2SC1)c1ccc(Cl)cc1	7%	.	-1%	?	10µM*	-4
16	O=C(NNC1=Nc2ccccc2SC1)c1ccc(F)cc1	13%	-1%	9%	-20%	23µM*	0
17	O=C(CN1C(=O)C2(SCC(=O)N2c2cccc(Cl)c2)c2ccccc21)NC1CCCCC1 (stereo not drawn)	0%	2%	0%	-18%	-7%	.
18	COc1cc2cc3c(N)c(C(=O)NCc4ccco4)sc3nc2cc1OC	-51%	-5%	?	-8%	.	0
19	Cc1ccc2nc3sc(C(=O)NCc4ccco4)c(N)c3cc2c1	-62%	2%	0%	-10%	?	167*
20	CCOc1ccc2c(c1)N(C(=O)CN1C(=O)CCC1=O)C(C)(C)C=C2C	-2%	32µM*	0%	-1%	.	0
21	CC1=CC(C)(C)N(C(=O)CN2C(=O)CCC2=O)c2ccc(C)cc21	-3%	.	-1%	0%	6%	-1
22	COc1ccc(Cn2ncc3c4sc(C)cc4n(C)c3c2=O)cc1F	.	.	.	-2%	3%	.
23	COc1ccc(C2c3ccc(OCc4ccccc4)cc3Oc3ncn(CCN4CCOCC4)c(=N)c32)cc1OC (stereo not drawn)	.	.	.	-7%	?	.
24	CCCOc1ccc(-c2nnc(-c3cccs3)o2)cc1	-57%	10µM*	0%	11%	.	0
25	CCCCOc1ccc(-c2nnc(-c3ccncc3)o2)cc1	-30%	16µM*	3%	6%	?	-1
26	c1ccc(CSc2nnc(-c3cccs3)o2)cc1	-54%	-6%	14%	-2%	?	0
27	CCSc1nnc(-c2cccs2)o1	-28%	28µM*	2%	0%	?	3

Compound profiles, as listed above. Screens in order: miR-21 reporter | ClpP mod | Nrf2 activator | A549 viability | Nrf2 inh | IL2 activator
COc1ccc(Cn2ncc3c4sc(C)cc4n(C)c3c2=O)cc1F in the list: . | . | . | -2% | 3% | .
CCSc1nnc(-c2cccs2)o1 in the list: -28% | 28µM* | 2% | 0% | ? | 3

Down the list, as entered above.
Nos. 16 to 27 in miR-21 reporter, in turn: 13%, 0%, -51%, -62%, -2%, -3%, ., ., -57%, -30%, -54%, -28%
